ChEMBL document CHEMBL4270561, “Biological activity of doubly modified salinomycin analogs - Evaluation in vitro and ex vivo” (Eur J Med Chem, 2018)

Test: Cell cycle arrest in human ALL5 cells assessed as accumulation at S-phase at 5 times antiproliferative IC50 after 96 hrs by propidium iodide staining based flow cytometry (reference value: 7.52%)
Assay type: functional

COc1cccc2c1C(=O)c1c(O)c3c(c(O)c1C2=O)C[C@@](O)(C(=O)CO)C[C@@H]3O[C@H]1C[C@H](N)[C@H](O)[C@H](C)O1 [DOXORUBICIN]
Activity: 3.91%
